{
  "source": "patent US20040097454A1",
  "about": "“Method for modulation of cell phenotype” (University Technology Corporation, priority 1999, published 2004)",
  "molecules": {"B1": {"name": "KCREB: dominant negative CREB mutant with arginine to leucine substitution in the DNA binding domain, SEQ ID NO:8 (protein, listed as Homo sapiens)", "chain": "MTMESGAENQQSGDAAVTEAENQEMTVQAQPQIATLAQVSMPAAHATSSAPTVTLVQLPNGQTVQVHGVIQAAQPSVIQSPQVQTVQISTIAESEDSQESVDSVTDSQKRREILSRRPSYRKILNDLSSDAPGVPRIEEEKSEEETSAPAITTVTVPTPIYQTSSGQYIAITQGGAIQLANNGTDGVQGLQTLTMTNAAATQPGTTILQYAQTTDGQQILVPSNQVVVQAASGDVQTYQIRTAPTSTIAPGVVMASSPALPTQPAEEAARKREVRLMKNREAARECRRKKKEYVKCLENRVAVLENQNKTLIEELKALKDLYCHKSDZ"}},
  "key": {"[1]": {"tested_on": "PPARγ2 and FABP expression in 3T3-L1 cell lines", "experiment": "Expression of adipocyte-specific markers PPARγ2 (Western) and FABP (RNA blot)", "format": "cell-based", "settings": "KCREB expressed before and during the conventional differentiation-inducing mixture", "method": "In this experiment, control, VP16-CREB and KCREB expressing cells lines were grown and treated as above. On days 0 and 10 of the experiment, whole cell lysates and total RNA were prepared from duplicate wells of cells. Approximately 25 ug of protein in the cell lysates (lysed directly on multiwell slides in SDS gel loading buffer) was separated on 10% polyacrylamide-SDS gels and transferred to nitrocellulose blots. The blots were probed with a polyclonal antibody to PPARγ2, and the specific PPARγ2 band is indicated by an * in the top row of blots (FIG. 3).\nSimilarly, 10 ug of total RNA was separated on 1% denaturing (formaldehyde) agarose gels run at 5 V/cm until the Bromophenol Blue tracking dye had migrated half the length of the gel. The gels were soaked in several changes of distilled water, overnight at 4° C., and stained with ethidium bromide and briefly examined in ultraviolet light to insure RNA integrity and equivalent RNA amounts in each lane. The gels were destained in several changes of 5× sodium chloride/sodium citrate (SSC) buffer. RNA was transferred onto nitrocellulose membranes. The resulting blots were heated to 80° C. under vacuum for two hours. The membranes were blocked for 30 minutes at 70° C., and then a biotin-labeled FABP-specific oligonucleotide probe (250 fg/ml) was added for an additional 30 min. […]"}, "[2]": {"tested_on": "mature 3T3-L1 adipocytes", "experiment": "Triacylglycerol stores in mature 3T3-L1 adipocytes after KCREB expression", "format": "cell-based", "settings": "in continued presence of insulin", "text": "Thus, CREB not only initiates adipogenesis, but appears to play a key role in maintaining the mature adipocyte phenotype."}, "[3]": {"tested_on": "3T3-L1 cells", "experiment": "3T3-L1 cell proliferation (Cell-Titer 96 Aq)", "format": "cell-based", "settings": "muristerone-treated versus control clones, 72 hours", "method": "3T3-L1 fibroblasts were passaged and treated with differentiation-inducing agents as previously described (Klemm et al., 1998, J. Biol. Chem., 273:917-923), incorporated herein by reference in its entirety. Plates of 3T3-L1 fibroblasts and adipocytes were grown to 70-80% confluency and transfected with the above-described plasmids with Superfect Reagent (Oiagen, Valencia, Calif.) according to the manufacturer's recommendations. Cells stably transfected with the plasmid, pVgRXR were selected for in conventional medium containing 500 ug/mi Zeocin, and cells stably transfected with pIND-VP16-CREB, pIND-KCREB or pIND-LacZ plasmids were selected for in medium containing 500 ug/ml Geneticin. Large, rapidly growing, well separated colonies were isolated 10 to 12 days after selection was begun with either antibiotic. […] The effect of VP16-CREB and KCREB expression on 3T3-L1 proliferation was assessed by measuring cell number with the Cell-Titer 96 Aq reagent system (Promega Corp., Madison, Wis.).\nTwo possible mechanisms by which CREB could potentiate adipose differentiation would be by increasing cell proliferation related to clonal expansion, or by inhibiting cell growth as a prelude to terminal differentiation. To examine these possibilities, changes in the rate of cell growth in control versus muristerone-treated VP16-CREB and KCREB expressing clones was measured."}, "[4]": {"tested_on": "PEPCK, FABP and FAS gene promoters in 3T3-L1 fibroblasts", "experiment": "Full length PEPCK, FABP and FAS promoter luciferase reporters in 3T3-L1 fibroblasts", "format": "cell-based", "method": "Control, VP16-CREB or KCREB inducibly expressing 3T3-L1 fibroblasts were transfected with plasmids containing the full length promoters of the PEPCK, FABP or FAS genes linked to luciferase. The cells were cotransfected with the internal control plasmid, pRSV-pGal. […] Cell lysates were then prepared, and luciferase activity measured as an index of transcriptional activity. Levels of transcription are shown relative to levels measured in untreated cells for each promoter tested, and were corrected for transfection efficiency."}, "[5]": {"tested_on": "NIH 3T3-L1 preadipocyte cell lines", "experiment": "Adipocyte differentiation assay, Oil Red O staining of triacylglycerol", "format": "cell-based", "method": "Differentiation assays were performed on cells growing on 8 chamber microscope slides. […] The cells were treated with a differentiation mixture, muristerone, or both. […] Muristerone was added to medium at a final concentration of 10 uM for the entire 10 day differentiation period. After 10 days in culture, the cells were stained with Oil Red 0 to visualize triacylglycerol vesicles as previously described (Klemm et al., 1998, J. Biol. Chem., 273:917-923), and counterstained with hematoxylin to visualize cell morphology. Cells were observed by brightfield microscopy and representative fields, were photographed."}, "[6]": {"tested_on": "PEPCK gene promoter in NIH 3T3-L1 clonal cell lines", "experiment": "Truncated CRE-containing PEPCK promoter luciferase reporter (-109 pPC-Luc) in 3T3-L1 clones", "format": "cell-based", "settings": "KCREB clones 2-1 and 2-10", "method": "To test the ability of KCREB and VP16-CREB expression to influence gene transcription, a plasmid containing a truncated, CRE-containing portion of the phosphoenolpyruvate carboxykinase (PEPCK) gene promoter linked to a luciferase reporter gene (−109 pPC-Luc) was transfected into each of the clones. […] Four hours later cell lysates were prepared and luciferase activity measured as an index of transcriptional activity. Levels are shown relative to levels of luciferase activity in untreated, control cells (No Add'n)."}, "[7]": {"tested_on": "CREluc reporter in HEK cells", "experiment": "CREluc reporter in HEK cells transfected with CREB constructs", "format": "cell-based", "settings": "transient transfection of adenoviral expression plasmids", "text": "CDNA for KCREB, CREB DIEDML and VP16CREB were cloned into adenoviral expression vectors as described previously herein. The plasmids were transiently transfected into HEK cells to assess their impact upon a cotransfected CREluc reporter construct. […] Transfected cells were also lysed and CREB protein content and Flag content assayed Western analysis. All proteins were highly expressed in HEK cells (data not shown)."}, "[8]": {"tested_on": "visceral adipose tissue cells in obese mice", "experiment": "Intraperitoneal adenovirus-KCREB in obese mice (planned)", "format": "in vivo", "settings": "adenovirus vector intraperitoneal", "text": "The ability of KCREB to decrease triacylglycerol storage in visceral adipose tissue cells in obese mice will be evaluated via intraperitoneal injection of an adenovirus-KCREB vector. For these experiments, two models of obesity have been selected: (1) a diet-induced model using AKR/J mice; and (2) a genetic model using obese, leptin-deficient C57/B16J ob-/ob- mice. […] Ob-/ob- mice were selected as the genetic model, as it is well characterized and widely employed as a conventional genetic model of obesity. Two models will be used to account for any model specific factors, and provide complimentary data from two systems.\nThe KCREB is delivered to the abdominal adipose depots using an adenovirus vector injected into the peritoneal cavity adjacent to this tissue. In future studies, the role of CREB in adipose tissue function will be assessed through a variety of methods including transgenic mice. […]\nFollowing injection of the adenovirus vectors, various biochemical, morphological, and behavior parameters are measured to evaluate the effectors of KCREB. […] Although changes in visceral fat tissue are the focus of these studies, the other fat depots are evaluated since changes in one fat depot may produce changes in other sites. […] Whole body lipid content is measured by digestion of the animals in ethanol-KOH. […]"}},
  "note": "Entries after “also recorded” stand apart in the source; their conditions may differ.",
  "data": [
    {"molecule": "B1", "values": [
      {"measurement": "appearance of PPARγ2 and FABP, day 10", "setting": "[1]", "value": "completely blocked the appearance of both PPARγ2 and FABP"},
      {"measurement": "triacylglycerol stores / vesicles in mature adipocytes", "setting": "[2]", "value": "complete loss of triacylglycerol stores within three to six days; also recorded: completely lost their triacylglycerol vesicles within three to six days; also recorded: dedifferentiation with loss of triacylglycerol vesicles"},
      {"measurement": "rate of cell proliferation", "setting": "[3]", "value": "No significant differences in the rate of cell proliferation"},
      {"measurement": "basal transcription from full-length PEPCK, FABP and FAS promoters", "setting": "[4]; muristerone-induced KCREB", "value": "decreased basal transcription levels slightly"},
      {"measurement": "stimulation of transcription by the differentiation-inducing mixture, PEPCK, FABP and FAS promoters", "setting": "[4]; muristerone-induced KCREB plus mixture, 4 hours", "value": "completely blocked the stimulation of transcription"},
      {"measurement": "cells exhibiting lipid accumulation", "setting": "[5]; KCREB induced for the entire 9 or 10 day differentiation period", "value": "no cells exhibited lipid accumulation"},
      {"measurement": "cells exhibiting low levels of triacylglycerol storage and rounded morphology", "setting": "[5]; KCREB induced with muristerone for only the first 48 hours, differentiation mixture", "value": "5 to 10", "unit": "%"},
      {"measurement": "signs of adipocyte differentiation (Oil Red O)", "setting": "[5]; muristerone prior to and during exposure to the differentiation-inducing mixture", "value": "failed to exhibit signs of differentiation"},
      {"measurement": "basal transcription from truncated PEPCK promoter", "setting": "[6]; overnight 10 uM muristerone alone", "value": "no effect on basal transcription levels"},
      {"measurement": "Bt2cAMP-stimulated transcription from truncated PEPCK promoter", "setting": "[6]; overnight muristerone then 0.5 mM Bt2cAMP", "value": "efficiently inhibited Bt2cAMP-stimulated transcription"},
      {"measurement": "CREluc reporter luciferase expression", "setting": "[7]", "value": "decreases luciferase expression"},
      {"measurement": "adipose triacylglycerol stores", "setting": "[8]", "value": "will decrease adipose triacylglycerol stores in obese mice"}
    ]}
  ]
}
